Assays:
human 5-HT2C receptor = biological target: T1, human 5-HT2C receptor (Homo sapiens, UniProt P28335); test: Stimulation of [3H] inositol monophosphate production by 5HT2C agonists in transfected CHO cells; assay type: cell-based
T1 construct: expressed in transfected cells; host or cells: CHO cells

Amino acid sequences for entries named in this document (tags omitted). Residues count along the entry.
UniProt P28335, 33-458: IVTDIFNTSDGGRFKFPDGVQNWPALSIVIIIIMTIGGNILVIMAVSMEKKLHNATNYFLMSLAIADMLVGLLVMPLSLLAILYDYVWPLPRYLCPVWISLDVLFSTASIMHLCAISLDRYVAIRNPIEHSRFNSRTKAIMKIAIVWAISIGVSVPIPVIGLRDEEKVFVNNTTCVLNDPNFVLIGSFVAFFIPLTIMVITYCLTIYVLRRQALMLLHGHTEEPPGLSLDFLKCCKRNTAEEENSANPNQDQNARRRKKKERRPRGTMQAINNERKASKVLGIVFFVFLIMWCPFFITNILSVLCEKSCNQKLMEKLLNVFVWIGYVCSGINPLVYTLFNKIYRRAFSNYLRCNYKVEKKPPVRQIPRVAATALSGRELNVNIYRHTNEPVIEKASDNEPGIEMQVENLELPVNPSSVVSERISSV

[1] = biological target: human 5-hydroxytryptamine2C (h5HT2C) receptor (Homo sapiens, UniProt P28335); test: 5HT2C receptor binding test procedure ([125I]DOI displacement, CHO cell membranes); conditions: reference compounds; [125I]DOI binding, h5HT2C in CHO membranes; read-out: Ki value and 95% confidence interval

## Clc1cccc(N2CCNCC2)c1 [mCPP, meta-chlorophenylpiperazine, reference compound]
Human 5-HT2C receptor; reference compound, relative to 5-HT
  EMAX (relative to 5-HT): 60%
Human 5-HT2C receptor; reference compounds, [3H]IP1 production, CHO cells with human 5-HT2C
  EC50: 46.8 nM
[1]
  Ki: 6.5 nM

— patent publication US20080009480A1, “CYCLOPENTA[b][1,4]DIAZEPINO[6,7,1-hi]INDOLES AND DERIVATIVES” (Wyeth, priority 2000, published 2008)
